Reference: EP3368527B1, “PALBOCICLIB TOSYLATE” (Egis Gyógyszergyár Zrt., priority 2015, dated 2017)

Assay: Dynamic vapour sorption analysis (DVS): water sorption isotherms, hygroscopicity
Format: physicochemical
Details: 25 °C

Substance	hygroscopicity (water sorption isotherms)
palbociclib hydrogen bromide (1:1) salt	does not exhibit significant hygroscopicity
palbociclib hydrogen bromide (1:2) dihydrate salt	exhibits significant hygroscopicity
